Measurements reported in US20090099157A1, “TETRAHYDRO-PYRAZOLO-PYRIDINE THIOETHER MODULATORS OF CATHEPSIN S” (priority 2007, published 2009).

Amino acid sequences for entries named in this document (tags omitted). Residues count along the entry.
UniProt P25774, 115-331: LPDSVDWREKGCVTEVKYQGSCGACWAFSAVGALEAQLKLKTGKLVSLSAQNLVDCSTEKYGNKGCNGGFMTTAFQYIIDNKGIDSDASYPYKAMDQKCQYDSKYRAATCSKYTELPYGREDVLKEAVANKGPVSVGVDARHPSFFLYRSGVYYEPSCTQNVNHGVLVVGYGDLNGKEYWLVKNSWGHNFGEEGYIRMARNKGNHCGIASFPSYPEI

These compounds were tested against Recombinant human cathepsin S (CatS) (Homo sapiens, UniProt P25774) (assay: biochemical).
COc1ccccc1N1CCN(CC(O)Cn2nc(-c3ccc(C(F)(F)F)c(SCCN4CCCCC4)c3)c3c2CCNC3)CC1 (stereo not drawn) [Example 453, 1-{4-[2-(Methyloxy)phenyl]piperazin-1-yl}-3-(3-{3-[(2-piperidin-1-ylethyl)sulfanyl]-4-(trifluoromethyl)phenyl}-4,5,6,7-tetrahydro-1H-pyrazolo[4,3-c]pyridin-1-yl)propan-2-ol] gave an IC50 of 0.92 µM.
Work on CS(=O)(=O)N1CCc2c(c(-c3ccc(C(F)(F)F)c(SCCN4CCCCC4)c3)nn2CCCN2CCC(O)C2)C1 (stereo not drawn) [Example 58, 1-(3-{5-Methanesulfonyl-3-[3-(2-piperidin-1-yl-ethylsulfanyl)-4-trifluoromethyl-phenyl]-4,5,6,7-tetrahydro-pyrazolo[4,3-c]pyridin-1-yl}-propyl)-pyrrolidin-3-ol.] yielded an IC50 of 1.54 µM.
For CC1(C)CCN(C[C@H](O)Cn2nc(-c3ccc(C(F)(F)F)c(SCCN4CCCC(F)(F)C4)c3)c3c2CCN(S(C)(=O)=O)C3)CC1 [Example 623, (2S)-1-{3-[3-{[2-(3,3-Difluoropiperidin-1-yl)ethyl]sulfanyl}-4-(trifluoromethyl)phenyl]-5-(methylsulfonyl)-4,5,6,7-tetrahydro-1H-pyrazolo[4,3-c]pyridin-1-yl}-3-(4,4-dimethylpiperidin-1-yl)propan-2-ol], the IC50 was 0.14 µM.
Compound CS(=O)(=O)N1CCc2c(c(-c3ccc(C(F)(F)F)c(SCCN4CCCCC4)c3)nn2CC(O)CN2CCC(n3c(=O)[nH]c4cc(Cl)ccc43)CC2)C1 (stereo not drawn) [Example 887, 5-Chloro-1-(1-{2-hydroxy-3-[5-(methylsulfonyl)-3-{3-[(2-piperidin-1-ylethyl)sulfanyl]-4-(trifluoromethyl)phenyl}-4,5,6,7-tetrahydro-1H-pyrazolo[4,3-c]pyridin-1-yl]propyl}piperidin-4-yl)-1,3-dihydro-2H-benzimidazol-2-one] has an IC50 of 0.0085 µM.
Work on CS(=O)(=O)N1CCc2c(c(-c3ccc(C(F)(F)F)c(SCC(=O)N4CCC(CO)CC4)c3)nn2CCCN2CCC(N3CCCC3=O)CC2)C1 [Example 77, 1-{1-[3-(3-{3-[2-(4-Hydroxymethyl-piperidin-1-yl)-2-oxo-ethylsulfanyl]-4-trifluoromethyl-phenyl}-5-methanesulfonyl-4,5,6,7-tetrahydro-pyrazolo[4,3-c]pyridin-1-yl)-propyl]-piperidin-4-yl}-pyrrolidin-2-one] yielded an IC50 of 0.12 µM.
With CS(=O)(=O)N1CCc2c(c(-c3ccc(C(F)(F)F)c(SCCN4CCOCC4)c3)nn2CCCN2CCCCC2)C1 [Example 326, 5-(Methylsulfonyl)-3-{3-[(2-morpholin-4-ylethyl)sulfanyl]-4-(trifluoromethyl)phenyl}-1-(3-piperidin-1-ylpropyl)-4,5,6,7-tetrahydro-1H-pyrazolo[4,3-c]pyridine] the IC50 was 0.88 µM.
CS(=O)(=O)N1CCc2c(c(-c3ccc(C(F)(F)F)c(SCCN4CCC(F)(F)C4)c3)nn2CC(O)CN2CCCCC2)C1 (stereo not drawn) [Example 421, 1-{3-[3-{[2-(3,3-Difluoropyrrolidin-1-yl)ethyl]sulfanyl}-4-(trifluoromethyl)phenyl]-5-(methylsulfonyl)-4,5,6,7-tetrahydro-1H-pyrazolo[4,3-c]pyridin-1-yl}-3-piperidin-1-ylpropan-2-ol] showed an IC50 of 0.26 µM.
CCN1CCc2c(c(-c3ccc(C(F)(F)F)c(SCC(=O)N4CCCC4)c3)nn2CC(O)CN2CCN(c3ccccc3O)CC2)C1 (stereo not drawn) [Example 544, 2-{4-[3-(5-Ethyl-3-{3-[(2-oxo-2-pyrrolidin-1-ylethyl)sulfanyl]-4-(trifluoromethyl)phenyl}-4,5,6,7-tetrahydro-1H-pyrazolo[4,3-c]pyridin-1-yl)-2-hydroxypropyl]piperazin-1-yl}phenol] was tested, and the IC50 was 1.39 µM.
CC(C)(C)OC(=O)NC1CCN(C(=O)CSc2cc(-c3nn(CCCN4CCC(N5CCCC5=O)CC4)c4c3CN(S(C)(=O)=O)CC4)ccc2C(F)(F)F)CC1 [Example 892, 1,1-Dimethylethyl {1-[({5-[5-(methylsulfonyl)-1-{3-[4-(2-oxopyrrolidin-1-yl)piperidin-1-yl]propyl}-4,5,6,7-tetrahydro-1H-pyrazolo[4,3-c]pyridin-3-yl]-2-(trifluoromethyl)phenyl}sulfanyl)acetyl]piperidin-4-yl}carbamate] gave an IC50 of 0.075 µM.
With CC(C)(C)NC(=O)N1CCc2c(c(-c3ccc(C(F)(F)F)c(SCCN4CCC(F)CC4)c3)nn2C[C@@H](O)CN2CCCCC2)C1 [Example 522, N-(1,1-Dimethylethyl)-3-[3-{[2-(4-fluoropiperidin-1-yl)ethyl]sulfanyl}-4-(trifluoromethyl)phenyl]-1-[(2S)-2-hydroxy-3-piperidin-1-ylpropyl]-1,4,6,7-tetrahydro-5H-pyrazolo[4,3-c]pyridine-5-carboxamide] the IC50 was 0.98 µM.
Work on CS(=O)(=O)N1CCc2c(c(-c3ccc(C(F)(F)F)c(SCCN4CCCC(CO)C4)c3)nn2CC(O)CN2CCC(c3n[nH]c(=O)[nH]3)CC2)C1 (stereo not drawn) [Example 804, 5-[1-(2-Hydroxy-3-{3-[3-({2-[3-(hydroxymethyl)piperidin-1-yl]ethyl}sulfanyl)-4-(trifluoromethyl)phenyl]-5-(methylsulfonyl)-4,5,6,7-tetrahydro-1H-pyrazolo[4,3-c]pyridin-1-yl}propyl)piperidin-4-yl]-2,4-dihydro-3H-1,2,4-triazol-3-one] yielded an IC50 of 0.19 µM.
CS(=O)(=O)N1CCc2c(c(-c3ccc(C(F)(F)F)c(SCCN4CCCC4)c3)nn2CCCN2CCC(N3CCCC3=O)CC2)C1 [Example 25, 1-[1-(3-{5-Methanesulfonyl-3-[3-(2-pyrrolidin-1-yl-ethylsulfanyl)-4-trifluoromethyl-phenyl]-4,5,6,7-tetrahydro-pyrazolo[4,3-c]pyridin-1-yl}-propyl)-piperidin-4-yl]-pyrrolidin-2-one] was tested, and the IC50 was 0.41 µM.
CS(=O)(=O)N1CCc2c(c(-c3ccc(C(F)(F)F)c(SCCN4CCOCC4)c3)nn2CC(O)CN2CCc3ccccc3C2)C1 (stereo not drawn) [Example 573, 1-(3,4-Dihydroisoquinolin-2(1H)-yl)-3-[5-(methylsulfonyl)-3-{3-[(2-morpholin-4-ylethyl)sulfanyl]-4-(trifluoromethyl)phenyl}-4,5,6,7-tetrahydro-1H-pyrazolo[4,3-c]pyridin-1-yl]propan-2-ol] gave an IC50 of 0.46 µM.
Work on CC(C)N1CCN(CC(O)Cn2nc(-c3ccc(C(F)(F)F)c(SCCN4CCOCC4)c3)c3c2CCN(S(C)(=O)=O)C3)CC1 (stereo not drawn) [Example 554, 1-[4-(1-Methylethyl)piperazin-1-yl]-3-[5-(methylsulfonyl)-3-{3-[(2-morpholin-4-ylethyl)sulfanyl]-4-(trifluoromethyl)phenyl}-4,5,6,7-tetrahydro-1H-pyrazolo[4,3-c]pyridin-1-yl]propan-2-ol] yielded an IC50 of 2.12 µM.
CS(=O)(=O)N1CCc2c(c(-c3ccc(C(F)(F)F)c(SCCN4CCC(F)CC4)c3)nn2CC(O)CN2CCC(c3n[nH]c(=O)[nH]3)CC2)C1 (stereo not drawn) [Example 758, 5-[1-(3-{3-[3-{[2-(4-Fluoropiperidin-1-yl)ethyl]sulfanyl}-4-(trifluoromethyl)phenyl]-5-(methylsulfonyl)-4,5,6,7-tetrahydro-1H-pyrazolo[4,3-c]pyridin-1-yl}-2-hydroxypropyl)piperidin-4-yl]-2,4-dihydro-3H-1,2,4-triazol-3-one] was tested, and the IC50 was 0.19 µM.
